≈ marks a conversion by molar mass, not a printed value.
Test system: Lactobacillus casei
Experiment: Growth inhibition of Lactobacillus casei (ATCC 7469)
Format: cell-based
Conditions: Lacticaseibacillus casei, ATCC7469, L. casei ATCC 7469; folate concentration = 1 ng/mL; read-out: Minimum Inhibitory Concentration50 for growth inhibition, L. casei

Row | Structure (SMILES) | IC50 [ng/mL]
1 | CCC(Cc1cnc2nc(N)nc(N)c2n1)c1ccc(C(=O)N[C@@H](CCC(=O)O)C(=O)O)cc1 (stereo partly drawn) [d, L-10-ethyl, d,L-10-ethyl-10-deazaminopterin] | 0.29 (≈ 0.62 nM)
2 | CCC(Cc1cnc2nc(N)nc(N)c2n1)c1ccc(C(=O)N[C@@H](CCC(=O)O)C(=O)O)cc1 (single isomer, unassigned) [l, L-10-ethyl, l,L-10-ethyl-10-deazaminopterin] | 0.23 (≈ 0.492 nM)
